This note sets out measurements from ChEMBL document CHEMBL1131908, “Delta opioid binding selectivity of 3-ether analogs of naltrindole” (Bioorg Med Chem Lett, 1999).

Sequences of proteins named here, by UniProt entry; tags and fusion partners are left off.
UniProt P41143, whole entry, looked up: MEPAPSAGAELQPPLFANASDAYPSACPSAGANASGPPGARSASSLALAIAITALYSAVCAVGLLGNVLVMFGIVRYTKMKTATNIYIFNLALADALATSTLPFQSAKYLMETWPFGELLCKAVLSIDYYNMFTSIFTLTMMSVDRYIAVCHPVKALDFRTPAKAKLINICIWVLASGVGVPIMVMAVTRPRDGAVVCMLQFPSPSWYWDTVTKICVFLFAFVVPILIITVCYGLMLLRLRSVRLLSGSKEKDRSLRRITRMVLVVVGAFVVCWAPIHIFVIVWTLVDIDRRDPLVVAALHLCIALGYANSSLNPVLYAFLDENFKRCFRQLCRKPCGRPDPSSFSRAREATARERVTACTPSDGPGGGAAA
UniProt P35372, whole entry, looked up: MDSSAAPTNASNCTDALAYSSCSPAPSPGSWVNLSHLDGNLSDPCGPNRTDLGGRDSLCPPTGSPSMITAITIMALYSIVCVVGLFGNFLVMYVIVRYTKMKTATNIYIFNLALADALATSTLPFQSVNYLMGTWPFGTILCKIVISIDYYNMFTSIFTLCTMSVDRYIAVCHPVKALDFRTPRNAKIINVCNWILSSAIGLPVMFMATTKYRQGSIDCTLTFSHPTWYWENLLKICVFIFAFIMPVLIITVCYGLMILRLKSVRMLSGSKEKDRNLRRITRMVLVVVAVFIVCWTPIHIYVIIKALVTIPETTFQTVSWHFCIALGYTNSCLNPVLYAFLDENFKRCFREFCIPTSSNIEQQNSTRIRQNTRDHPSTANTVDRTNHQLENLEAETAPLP

In this test the target is Opioid receptors; mu & delta (Homo sapiens) (UniProt P41143+P35372). Put plainly: Ratio of binding affinities of mu and delta opioid receptors. Type of test: protein assay.

Several values for one entry are separate records, joined by “and”; a condition that tells them apart may be missing. Equal values may be shown once.

As for `Oc1ccc2c3c1O[C@H]1c4[nH]c5ccccc5c4C[C@@]4(O)[C@@H](C2)N(CC2CC2)CC[C@]314` [NALTRINDOLE], the Ratio was 120 and 52.
